Results as given in patent publication USRE39114E1, “Expression of sucrose phosphorylase in plants” (Monsanto Technology LLC, priority 1995, dated 2006).

Molecular target: Streptococcus mutans sucrose phosphorylase (GtfA, S. mutans SP), wild type, gene gtfA SEQ ID NO:5 (Streptococcus mutans serotype c, UniProt P10249)
Details: read-out: Km(Pi), 25° C., pH 7.0

O=P(O)(O)O [Pi, inorganic phosphate]
Km: 15.3 mM
